# PubChem BioAssay (EPA / NIEHS)
# Chains of the proteins cited; added tags and fusions are not shown. Lines headed by an entry give the natural chain unless they say otherwise; changes in a name come on top.
# UniProt O75469: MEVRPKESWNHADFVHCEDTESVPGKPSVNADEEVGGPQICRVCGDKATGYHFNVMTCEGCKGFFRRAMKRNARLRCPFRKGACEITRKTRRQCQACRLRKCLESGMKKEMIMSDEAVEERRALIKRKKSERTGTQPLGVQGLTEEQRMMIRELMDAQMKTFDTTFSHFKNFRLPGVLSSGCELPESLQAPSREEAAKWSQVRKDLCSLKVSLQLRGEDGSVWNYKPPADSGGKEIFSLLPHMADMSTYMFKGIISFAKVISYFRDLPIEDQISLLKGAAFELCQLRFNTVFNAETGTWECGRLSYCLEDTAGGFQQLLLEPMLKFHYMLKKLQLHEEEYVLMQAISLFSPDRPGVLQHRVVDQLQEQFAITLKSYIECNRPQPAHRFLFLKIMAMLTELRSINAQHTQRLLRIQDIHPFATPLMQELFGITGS
# UniProt P13631, whole entry, looked up: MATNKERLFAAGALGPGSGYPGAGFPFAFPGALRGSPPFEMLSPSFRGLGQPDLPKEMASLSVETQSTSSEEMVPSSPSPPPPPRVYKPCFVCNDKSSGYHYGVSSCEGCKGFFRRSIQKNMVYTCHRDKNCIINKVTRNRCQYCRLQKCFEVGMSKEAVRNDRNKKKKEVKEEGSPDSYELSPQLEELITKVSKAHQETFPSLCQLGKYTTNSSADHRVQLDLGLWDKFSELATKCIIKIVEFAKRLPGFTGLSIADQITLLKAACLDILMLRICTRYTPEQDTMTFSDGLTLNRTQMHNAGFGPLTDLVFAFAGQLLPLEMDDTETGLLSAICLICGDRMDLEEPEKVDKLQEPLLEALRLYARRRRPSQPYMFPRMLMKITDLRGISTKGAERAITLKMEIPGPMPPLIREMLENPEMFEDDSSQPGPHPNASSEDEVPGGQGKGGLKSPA
# UniProt Q92753: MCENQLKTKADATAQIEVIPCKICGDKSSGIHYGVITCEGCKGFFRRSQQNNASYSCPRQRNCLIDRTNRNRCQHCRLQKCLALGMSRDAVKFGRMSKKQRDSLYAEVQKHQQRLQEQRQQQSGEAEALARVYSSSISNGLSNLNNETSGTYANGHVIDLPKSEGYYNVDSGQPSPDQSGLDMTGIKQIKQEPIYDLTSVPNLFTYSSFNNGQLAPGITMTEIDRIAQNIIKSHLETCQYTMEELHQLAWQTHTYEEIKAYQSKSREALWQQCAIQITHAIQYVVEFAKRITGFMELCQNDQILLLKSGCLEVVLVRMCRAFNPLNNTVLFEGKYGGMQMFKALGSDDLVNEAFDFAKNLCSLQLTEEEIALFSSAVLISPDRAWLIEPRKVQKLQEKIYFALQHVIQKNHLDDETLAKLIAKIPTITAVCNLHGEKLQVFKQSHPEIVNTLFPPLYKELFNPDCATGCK
# UniProt P51449: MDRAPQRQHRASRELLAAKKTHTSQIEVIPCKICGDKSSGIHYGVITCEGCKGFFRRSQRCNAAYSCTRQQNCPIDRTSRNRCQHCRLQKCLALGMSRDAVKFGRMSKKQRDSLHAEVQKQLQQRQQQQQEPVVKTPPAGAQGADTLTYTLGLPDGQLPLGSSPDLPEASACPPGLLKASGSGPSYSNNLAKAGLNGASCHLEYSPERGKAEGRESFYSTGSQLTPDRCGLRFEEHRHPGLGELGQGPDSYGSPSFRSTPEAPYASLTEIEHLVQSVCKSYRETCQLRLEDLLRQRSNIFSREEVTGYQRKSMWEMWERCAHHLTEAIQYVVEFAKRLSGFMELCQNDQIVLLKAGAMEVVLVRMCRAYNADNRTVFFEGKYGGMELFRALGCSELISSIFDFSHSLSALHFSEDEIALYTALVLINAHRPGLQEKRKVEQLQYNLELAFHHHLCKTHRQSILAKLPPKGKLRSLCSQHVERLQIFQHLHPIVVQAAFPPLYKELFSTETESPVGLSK
# UniProt P19793: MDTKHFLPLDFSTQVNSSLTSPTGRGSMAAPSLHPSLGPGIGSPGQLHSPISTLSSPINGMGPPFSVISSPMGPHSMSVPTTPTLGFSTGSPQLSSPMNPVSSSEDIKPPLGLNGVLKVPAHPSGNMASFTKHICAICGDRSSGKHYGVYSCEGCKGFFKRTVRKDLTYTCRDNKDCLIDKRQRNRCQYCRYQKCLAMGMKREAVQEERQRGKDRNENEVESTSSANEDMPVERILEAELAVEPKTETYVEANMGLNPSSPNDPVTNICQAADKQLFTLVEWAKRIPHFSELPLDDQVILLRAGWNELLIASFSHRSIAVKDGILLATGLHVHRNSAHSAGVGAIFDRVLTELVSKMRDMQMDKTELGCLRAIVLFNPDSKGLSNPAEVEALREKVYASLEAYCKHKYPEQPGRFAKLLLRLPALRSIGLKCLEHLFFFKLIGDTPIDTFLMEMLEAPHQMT
# UniProt P10827: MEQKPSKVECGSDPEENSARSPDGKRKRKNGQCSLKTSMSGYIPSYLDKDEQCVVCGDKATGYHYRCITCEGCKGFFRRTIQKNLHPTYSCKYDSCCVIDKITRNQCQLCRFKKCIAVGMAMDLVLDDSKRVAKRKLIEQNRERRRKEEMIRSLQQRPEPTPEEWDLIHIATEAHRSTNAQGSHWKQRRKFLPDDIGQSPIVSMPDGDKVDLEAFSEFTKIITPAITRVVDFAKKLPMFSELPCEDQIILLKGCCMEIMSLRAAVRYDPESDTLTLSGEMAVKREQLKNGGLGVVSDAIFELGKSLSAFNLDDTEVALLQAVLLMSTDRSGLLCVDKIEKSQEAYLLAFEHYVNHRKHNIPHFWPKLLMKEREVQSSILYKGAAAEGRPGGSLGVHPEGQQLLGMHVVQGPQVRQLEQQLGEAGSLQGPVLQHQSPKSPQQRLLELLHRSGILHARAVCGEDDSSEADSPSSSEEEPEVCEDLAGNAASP
# UniProt P28702: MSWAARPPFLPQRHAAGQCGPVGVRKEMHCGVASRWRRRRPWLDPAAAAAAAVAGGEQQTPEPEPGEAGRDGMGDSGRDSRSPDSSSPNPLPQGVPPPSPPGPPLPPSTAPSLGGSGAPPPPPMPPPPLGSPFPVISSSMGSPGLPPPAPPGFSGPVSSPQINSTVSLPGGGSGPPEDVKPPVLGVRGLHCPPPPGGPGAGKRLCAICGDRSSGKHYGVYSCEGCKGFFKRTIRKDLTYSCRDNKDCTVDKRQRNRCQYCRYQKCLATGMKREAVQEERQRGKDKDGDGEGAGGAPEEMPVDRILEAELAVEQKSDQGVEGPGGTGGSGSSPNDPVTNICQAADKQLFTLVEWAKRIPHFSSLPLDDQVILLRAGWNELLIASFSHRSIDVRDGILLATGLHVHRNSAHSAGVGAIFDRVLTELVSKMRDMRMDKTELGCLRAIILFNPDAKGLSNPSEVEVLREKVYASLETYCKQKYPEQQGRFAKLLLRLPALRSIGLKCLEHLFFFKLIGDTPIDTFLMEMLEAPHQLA
# UniProt P16581: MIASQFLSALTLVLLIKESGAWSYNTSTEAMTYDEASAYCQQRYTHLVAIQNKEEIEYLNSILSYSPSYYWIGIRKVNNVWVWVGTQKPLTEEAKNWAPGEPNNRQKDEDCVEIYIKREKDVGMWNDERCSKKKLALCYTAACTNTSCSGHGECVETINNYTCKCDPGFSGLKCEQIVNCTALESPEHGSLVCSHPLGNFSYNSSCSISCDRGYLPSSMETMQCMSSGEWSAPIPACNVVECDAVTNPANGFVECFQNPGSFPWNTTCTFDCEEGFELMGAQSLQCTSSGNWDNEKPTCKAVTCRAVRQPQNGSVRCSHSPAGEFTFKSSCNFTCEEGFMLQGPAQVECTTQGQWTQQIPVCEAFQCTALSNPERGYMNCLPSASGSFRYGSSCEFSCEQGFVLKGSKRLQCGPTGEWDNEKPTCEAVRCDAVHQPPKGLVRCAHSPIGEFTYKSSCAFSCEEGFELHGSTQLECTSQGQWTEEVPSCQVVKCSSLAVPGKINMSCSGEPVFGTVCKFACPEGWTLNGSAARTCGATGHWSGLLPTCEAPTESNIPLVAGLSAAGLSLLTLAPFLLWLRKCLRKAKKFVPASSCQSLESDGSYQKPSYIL
# The list shows a part of the results, in another mix than the full data. Records with an inconclusive call do not appear. The source made the active and inactive calls. The calls were made as follows, unless noted: active = hit-call score of the fitted dose curve at least 0.9, where 1 is the maximum; inconclusive = response in the unintended direction; inactive = score below 0.9.
# Experiments:
# [1] = target: Nuclear receptor subfamily 1 group I member 2 (Homo sapiens) (UniProt O75469); assay: ATG_PXR_TRANS: Attagene TRANS-FACTORIAL HepG2 Assay for human Pregnane X Receptor (PXR) (AID 2283008)
# Procedure, shortened: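 Multiplexed TRANS reporter panel in HepG2; this component tracks PXR-Gal4-driven reporter mRNA after 24 h dosing, measured by RT-PCR with capillary electrophoresis fluorescence, fitted against DMSO.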
# [2] = target: human Retinoic Acid Receptor gamma (RARg), RARG (gene 5916) (UniProt P13631); assay: ATG_RARg_TRANS: Attagene TRANS-FACTORIAL HepG2 Assay for human Retinoic Acid Receptor gamma (RARg) (AID 2283009)
# Procedure, shortened: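 TRANS format measured activity of exogenous NR-GAL4 fusion (RARg) in transfected HepG2 liver cells after 24 h dosing. Induced reporter RNA was detected by RT-PCR/capillary electrophoresis fluorescence, analysed in the positive direction against DMSO.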
# [3] = target: human RAR-related Orphan Receptor beta (RORb), RORB (gene 6096) (UniProt Q92753); assay: ATG_RORb_TRANS: Attagene TRANS-FACTORIAL HepG2 Assay for human RAR-related Orphan Receptor beta (RORb) (AID 2283010)
# Procedure, shortened: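 Transfect HepG2 with multiple GAL4-UAS reporter transcription units; dose chemicals for 24 h; isolate RNA, reverse-transcribe and PCR-amplify reporter sequences; label, digest and resolve fragments by capillary electrophoresis; fit increases relative to DMSO.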
# [4] = target: human RAR-related Orphan Receptor gamma (RORg), RORC (gene 6097) (UniProt P51449); assay: ATG_RORg_TRANS: Attagene TRANS-FACTORIAL HepG2 Assay for human RAR-related Orphan Receptor gamma (RORg) (AID 2283011)
# Procedure, shortened: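 First, HepG2 liver cells were transfected with GAL4-UAS-driven reporter constructs and the RORg-Gal4 fusion. Next, they were treated with chemical for 24 h. Finally, reporter mRNA was quantified by RT-PCR and capillary electrophoresis, with upward activity fitted against DMSO.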
# [5] = target: Retinoic acid receptor RXR-alpha (Homo sapiens) (UniProt P19793); assay: ATG_RXRa_TRANS: Attagene TRANS-FACTORIAL HepG2 Assay for human Retinoid X Receptor alpha (RXRa) (AID 2283012)
# Procedure, shortened: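 Measures exogenous chimeric NR-GAL4 activity in transfected HepG2 liver cells after 24 h of dosing. Induced reporter mRNA was detected by RT-PCR with capillary electrophoresis, and gain of signal was analysed against DMSO.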
# [6] = target: human Thyroid Receptor alpha (THRa1), THRA (gene 7067) (UniProt P10827); assay: ATG_THRa1_TRANS: Attagene TRANS-FACTORIAL HepG2 Assay for human Thyroid Receptor alpha (THRa1) (AID 2283014)
# Procedure, shortened: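 Reporter transcript induction, read by capillary electrophoresis of 6-FAM-labelled RT-PCR products, reflects activity of a transfected THRa1-Gal4 fusion in HepG2 liver cells. Cells were dosed for 24 h; activity was fitted in the positive direction against DMSO.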
# [7] = target: human Retinoid X Receptor beta (RXRb), RXRB (gene 6257) (UniProt P28702); assay: ATG_RXRb_TRANS: Attagene TRANS-FACTORIAL HepG2 Assay for human Retinoid X Receptor beta (RXRb) (AID 2283013)
# Procedure, shortened: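 Chimeric receptor-Gal4 activity was assessed in transiently transfected human HepG2 cells after 24 h exposure. Transcripts from GAL4-UAS reporters were quantified by fluorescent RT-PCR and capillary electrophoresis, with DMSO as negative control and baseline.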
# [8] = read-out: E-selectin (Homo sapiens) (UniProt P16581); assay: BSK_3C_Eselectin: BioMAP Diversity Plus: 3C Assay for Eselectin Biomarker Activity (AID 2283015; active = hit-call score of the fitted dose curve at least 0.9, where 1 is the maximum; inactive = score below 0.9;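 also: cell surface E-selectin protein quantified by ELISA 24 h after dosing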); conditions: actives raise or lower the signal; primary human endothelial cells (HUVEC)
# Procedure, shortened: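 ELISA read-out of E-selectin on endothelial monolayers after 24 h chemical treatment. Human umbilical vein primary cells served as the system, with DMSO defining baseline activity for bidirectional fitting.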
# [9] = read-out: Interleukin-1 alpha (IL1a), IL1A (gene 3552); assay: BSK_BE3C_IL1a: BioMAP Diversity Plus: BE3C Assay for Interleukin-1 alpha (IL1a) Biomarker Activity (AID 2283016; active = hit-call score of the fitted dose curve at least 0.9, where 1 is the maximum; inactive = score below 0.9); conditions: actives raise or lower the signal; primary human bronchial epithelial cells
# Procedure, shortened: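 Signal from IL-1a ELISA, taken 24 h after chemical dosing of human bronchial epithelial cells, is compared with DMSO as baseline using bidirectional curve fitting.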
# [10] = read-out: Monocyte Chemoattractant Protein-1 (MCP1), CCL2 (gene 6347); assay: BSK_3C_MCP1: BioMAP Diversity Plus: 3C Assay for Monocyte Chemoattractant Protein-1 (MCP1) Biomarker Activity (AID 2283017; active = hit-call score of the fitted dose curve at least 0.9, where 1 is the maximum; inactive = score below 0.9); conditions: actives raise or lower the signal; primary human endothelial cells (HUVEC)
# Procedure, shortened: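 ELISA read-out of MCP-1 from human umbilical vein endothelial cell cultures harvested 24 h post-dosing. Gain or loss of signal was fitted relative to DMSO.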
Compound,AC50 [1],outcome [2],outcome [3],outcome [4],outcome [5],outcome [6],outcome [1],outcome [7],outcome [8],outcome [9],outcome [10]
CCCCOP(OCCCC)OCCCC,active: 6.25 µM,inactive,inactive,inactive,inactive,inactive,,,,,
Cc1cc([N+](=O)[O-])cc([N+](=O)[O-])c1O,,inactive,inactive,,,inactive,inactive,inactive,inactive,inactive,inactive
CCCCC(CC)CO[P+](=O)OCC(CC)CCCC (configuration not stated),active: 12.3 µM,,inactive,,,,,,,,
N#CSc1ccc([N+](=O)[O-])cc1[N+](=O)[O-],,inactive,inactive,inactive,inactive,,inactive,inactive,,,
